From publication doi:10.1101/2025.09.30.679465v1 come the findings set out here.

By UniProt entry, the sequences of proteins in these tests, tags left out. Where a name states a change or a piece, a line headed by the entry shows the natural chain unless it says otherwise.
UniProt Q5JUK3, whole entry Y796H: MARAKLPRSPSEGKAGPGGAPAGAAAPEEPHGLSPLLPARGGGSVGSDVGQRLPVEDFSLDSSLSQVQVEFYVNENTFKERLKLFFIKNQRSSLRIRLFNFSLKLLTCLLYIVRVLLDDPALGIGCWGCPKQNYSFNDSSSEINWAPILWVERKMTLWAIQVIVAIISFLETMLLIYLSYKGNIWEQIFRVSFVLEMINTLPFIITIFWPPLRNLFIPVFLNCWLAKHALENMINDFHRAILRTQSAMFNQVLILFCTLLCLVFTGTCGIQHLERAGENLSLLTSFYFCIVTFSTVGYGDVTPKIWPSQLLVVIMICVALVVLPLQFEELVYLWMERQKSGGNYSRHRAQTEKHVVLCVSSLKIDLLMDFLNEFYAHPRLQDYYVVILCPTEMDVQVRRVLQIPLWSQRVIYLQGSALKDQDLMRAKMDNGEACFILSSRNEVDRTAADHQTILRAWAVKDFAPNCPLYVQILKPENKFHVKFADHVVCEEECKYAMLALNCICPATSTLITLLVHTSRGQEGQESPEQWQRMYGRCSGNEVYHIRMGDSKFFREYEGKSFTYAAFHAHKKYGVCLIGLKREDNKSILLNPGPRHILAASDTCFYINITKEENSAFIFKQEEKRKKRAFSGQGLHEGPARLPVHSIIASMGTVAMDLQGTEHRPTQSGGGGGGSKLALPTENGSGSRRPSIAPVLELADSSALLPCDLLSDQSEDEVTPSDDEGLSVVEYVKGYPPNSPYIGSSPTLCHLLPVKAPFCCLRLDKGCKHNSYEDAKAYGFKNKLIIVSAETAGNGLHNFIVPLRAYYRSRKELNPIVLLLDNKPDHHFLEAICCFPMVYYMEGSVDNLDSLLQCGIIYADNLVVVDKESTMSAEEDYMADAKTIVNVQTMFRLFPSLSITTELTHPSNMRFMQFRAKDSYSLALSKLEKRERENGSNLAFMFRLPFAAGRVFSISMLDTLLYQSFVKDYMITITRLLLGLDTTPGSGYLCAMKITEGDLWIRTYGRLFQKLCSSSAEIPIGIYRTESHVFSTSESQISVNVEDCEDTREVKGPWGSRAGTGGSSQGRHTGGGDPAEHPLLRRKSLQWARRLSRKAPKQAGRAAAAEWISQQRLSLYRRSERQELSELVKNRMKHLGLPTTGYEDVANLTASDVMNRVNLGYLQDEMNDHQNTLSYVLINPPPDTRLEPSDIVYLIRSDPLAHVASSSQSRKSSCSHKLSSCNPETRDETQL
UniProt Q5JUK3, whole entry, stated change not applied: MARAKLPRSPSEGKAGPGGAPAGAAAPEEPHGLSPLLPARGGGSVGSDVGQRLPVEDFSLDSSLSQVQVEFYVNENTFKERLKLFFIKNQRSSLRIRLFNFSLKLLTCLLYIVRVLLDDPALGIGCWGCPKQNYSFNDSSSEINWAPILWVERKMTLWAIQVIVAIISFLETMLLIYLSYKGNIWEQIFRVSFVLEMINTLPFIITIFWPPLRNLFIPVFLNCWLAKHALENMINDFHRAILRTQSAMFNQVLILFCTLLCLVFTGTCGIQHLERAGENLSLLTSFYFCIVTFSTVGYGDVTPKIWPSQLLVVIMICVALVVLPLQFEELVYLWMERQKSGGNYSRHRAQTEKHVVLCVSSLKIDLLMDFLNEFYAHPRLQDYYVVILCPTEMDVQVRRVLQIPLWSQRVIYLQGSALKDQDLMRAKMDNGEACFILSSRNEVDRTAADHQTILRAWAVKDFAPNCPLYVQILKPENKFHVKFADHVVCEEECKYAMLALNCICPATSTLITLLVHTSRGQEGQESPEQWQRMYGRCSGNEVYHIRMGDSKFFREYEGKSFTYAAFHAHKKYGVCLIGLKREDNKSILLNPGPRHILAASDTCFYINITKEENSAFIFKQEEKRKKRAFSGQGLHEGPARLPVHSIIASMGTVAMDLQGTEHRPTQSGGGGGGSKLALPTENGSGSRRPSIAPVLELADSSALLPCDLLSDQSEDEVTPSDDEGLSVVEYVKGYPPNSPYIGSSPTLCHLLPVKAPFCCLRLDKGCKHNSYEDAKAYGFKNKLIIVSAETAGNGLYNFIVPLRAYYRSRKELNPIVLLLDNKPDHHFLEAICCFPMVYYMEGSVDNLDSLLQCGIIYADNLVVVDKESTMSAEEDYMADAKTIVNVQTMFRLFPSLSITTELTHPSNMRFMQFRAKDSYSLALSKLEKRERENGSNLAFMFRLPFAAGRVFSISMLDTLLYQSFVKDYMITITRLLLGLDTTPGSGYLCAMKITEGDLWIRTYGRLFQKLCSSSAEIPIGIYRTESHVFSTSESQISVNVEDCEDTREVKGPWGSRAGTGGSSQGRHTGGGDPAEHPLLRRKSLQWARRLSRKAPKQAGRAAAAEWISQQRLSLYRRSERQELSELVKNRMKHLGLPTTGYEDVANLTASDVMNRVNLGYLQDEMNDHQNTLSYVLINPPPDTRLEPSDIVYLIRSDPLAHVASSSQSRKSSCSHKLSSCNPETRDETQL
UniProt Q12809, whole entry: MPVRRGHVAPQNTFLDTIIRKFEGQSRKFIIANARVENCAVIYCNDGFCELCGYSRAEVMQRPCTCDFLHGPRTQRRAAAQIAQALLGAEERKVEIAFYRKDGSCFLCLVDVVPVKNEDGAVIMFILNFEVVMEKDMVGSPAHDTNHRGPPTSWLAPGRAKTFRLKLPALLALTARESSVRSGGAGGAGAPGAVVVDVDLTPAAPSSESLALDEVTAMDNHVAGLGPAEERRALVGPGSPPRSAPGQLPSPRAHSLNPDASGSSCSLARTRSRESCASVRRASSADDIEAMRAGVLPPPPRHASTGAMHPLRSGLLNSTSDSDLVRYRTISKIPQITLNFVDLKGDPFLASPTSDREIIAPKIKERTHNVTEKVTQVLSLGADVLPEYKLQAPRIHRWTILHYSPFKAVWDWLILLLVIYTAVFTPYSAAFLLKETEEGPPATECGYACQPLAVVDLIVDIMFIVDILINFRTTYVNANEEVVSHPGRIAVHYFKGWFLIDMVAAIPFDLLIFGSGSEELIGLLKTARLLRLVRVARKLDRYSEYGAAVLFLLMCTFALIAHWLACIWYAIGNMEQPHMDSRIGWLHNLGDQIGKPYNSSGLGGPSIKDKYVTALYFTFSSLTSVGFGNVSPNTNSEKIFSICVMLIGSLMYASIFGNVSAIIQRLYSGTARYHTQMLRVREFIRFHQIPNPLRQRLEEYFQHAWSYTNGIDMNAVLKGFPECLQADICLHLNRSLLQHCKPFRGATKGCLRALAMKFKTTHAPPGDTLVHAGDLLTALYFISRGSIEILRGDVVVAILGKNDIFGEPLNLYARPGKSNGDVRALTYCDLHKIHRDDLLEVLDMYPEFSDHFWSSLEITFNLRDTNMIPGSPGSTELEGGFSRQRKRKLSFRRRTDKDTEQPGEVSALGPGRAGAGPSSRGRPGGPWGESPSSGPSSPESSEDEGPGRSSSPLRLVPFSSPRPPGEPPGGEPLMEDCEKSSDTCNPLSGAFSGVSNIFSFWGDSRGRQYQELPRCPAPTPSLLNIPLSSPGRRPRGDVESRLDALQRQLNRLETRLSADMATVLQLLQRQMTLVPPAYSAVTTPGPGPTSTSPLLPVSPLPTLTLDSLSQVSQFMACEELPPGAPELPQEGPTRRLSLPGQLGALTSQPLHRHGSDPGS

The target in series [1] is KNa1.1 WT/Y796H (Homo sapiens, UniProt Q5JUK3, Y796H). The series is described as follows: thallium flux. Type of series: cell-based. The following applies: 1 h preincubation, 37 °C, 2.5 mM thallium sulphate, pH 7.3.
The target of series [2] is hERG (Homo sapiens, UniProt Q12809). Description: whole-cell patch clamp, HEK293, tail current. Type of series: cell-based. The conditions noted are these: room temperature, pH 7.3 outside. A general note: The patch-clamp technique gives a direct electrical read-out from membranes.

pIC50: −log10 of the molar value.

For the compound `CC1CCN(C2=NC(=O)/C(=C/c3cn(-c4ccccc4)nc3-c3ccc(OCc4ccccc4F)cc3)S2)CC1`, in series [1], the pIC50 was 5.62. The “% inhibition at 10 μM” value in series [2] is greater than 50%.
`CC(C)(C)c1ccc(O)c(NC(=O)CCc2ccc3c(c2)OCO3)c1`: the pIC50 in series [1] was 5.51. Also, in series [2], the “% inhibition at 10 μM” value is greater than 50%.
As for `O=C(Nc1ccc(C(F)(F)F)cc1)N1CCC2(CC1)N[C@@H](Cc1ccccc1)C(=O)N2CC1CC1`, the pIC50 in series [1] is 4.92. Further, the “% inhibition at 10 μM” value in series [2] was greater than 50%.
In series [1], `CCCCCCOc1ccc(C(=O)Oc2ccc3c(=O)c(Oc4cc(C)cc(C)c4C)c(C(F)(F)F)oc3c2CN2CCOCC2)cc1` had a pIC50 of 5.59.
`COC(=O)c1cccc(C#Cc2cccc(NC(=O)Cc3ccc(OC(F)F)cc3)c2)c1`: in series [1], the pIC50 was 5.23.

As usually defined, the pIC50 is the negative decadic logarithm of the IC50, by convention in mol/L. A high value points to a low IC50. By % inhibition is commonly meant the percentage by which the read-out fell short of the control.
